From ChEMBL document CHEMBL1165960, “Identification of the three-dimensional pharmacophore of kappa-opioid receptor agonists” (Bioorg Med Chem, 2010)

Assay: Selectivity ratio of Ki for mu opioid receptor to kappa opioid receptor

Structure (SMILES)	Ratio Ki
CN(C(=O)Cc1ccc(Cl)c(Cl)c1)C1CCCCC1N1CCCC1 (configuration not stated)	630
CN(C(=O)Cc1ccccc1)[C@H]1CC[C@@]2(CCCO2)C[C@@H]1N1CCCC1	292
